Among the data in patent US20060252813A1, “Apparatus for curing a composite laminate” (priority 2002, published 2006) are IC50 values, retold here.

Chains of the proteins cited; added tags and fusions are not shown. Lines headed by an entry give the natural chain unless they say otherwise; changes in a name come on top.
UniProt P0A9L5: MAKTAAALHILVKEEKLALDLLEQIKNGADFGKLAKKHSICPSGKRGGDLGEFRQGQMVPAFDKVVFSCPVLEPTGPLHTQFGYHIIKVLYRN

For the assay, the target named is EcParvulin (Escherichia coli, UniProt P0A9L5). The assay can be described thus: protease-coupled PPIase assay, EcParvulin. Format: biochemical. The conditions noted are these: 20 nM EcParvulin; substrate Suc-Ala-Phe-Pro-Phe-pNA, α-chymotrypsin; 35 mM HEPES pH 7.8, 6° C; read-out: Target T-5 (EcParv), IC50 class.

Turning to `CN(C)c1ccc(N=Nc2ccc(S(=O)(=O)NCCC#N)cc2)cc1` [Compound 7], the 50% inhibitory concentration (IC50) (in general, the midpoint of a concentration-inhibition curve) is 10 to 50 µM.

In the case of `N#CCCNC(=O)[C@H](Cc1csc2ccccc12)NC(=S)Nc1ccc(SC(F)(F)F)cc1` [Compound 2], the IC50 was 50 to 100 µM.

With `CC(=O)NC(Cc1cccc2ccccc12)C(=O)NC(Cc1ccccc1C#N)C(N)=O` (centres unmarked) [Compound 8], the IC50 was 5 to 10 µM.

On to `N#CCCNS(=O)(=O)Cc1ccccc1` [Compound 3], for which the IC50 is over 100 µM.

Regarding `CCNC(=S)NC(Cc1ccc2ccccc2c1)C(=O)NCCC#N` (centres unmarked) [Compound 1], the IC50 is over 100 µM.
